The record followed here is BindingDB's records for PubMed 10779381 (University of Ferrara, 2000).

Protein sequences, listed by entry. Tags and fused reporters are not part of them.
UniProt P0DMS8, whole entry: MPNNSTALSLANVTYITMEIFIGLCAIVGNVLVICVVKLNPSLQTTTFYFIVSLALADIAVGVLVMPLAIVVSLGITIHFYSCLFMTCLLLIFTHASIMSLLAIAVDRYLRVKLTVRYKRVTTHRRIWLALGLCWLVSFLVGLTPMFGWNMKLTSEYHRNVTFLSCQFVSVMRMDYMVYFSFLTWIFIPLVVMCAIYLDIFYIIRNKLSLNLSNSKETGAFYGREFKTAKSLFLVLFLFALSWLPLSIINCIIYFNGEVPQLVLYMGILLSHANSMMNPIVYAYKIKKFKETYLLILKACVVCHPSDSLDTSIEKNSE

Several values for one entry are separate records, joined by “and”; a condition that tells them apart may be missing. Equal entries are not always repeated.

The experiment deals with Adenosine receptor A3 (Homo sapiens, UniProt P0DMS8).

As a reminder, the Ki is a measure of affinity in units of concentration, obtained from inhibition or displacement. Read a low Ki as a stronger hold on the target. As for `CCCn1cc2c(nc(NC(=O)Nc3ccc(OC)cc3)n3nc(-c4ccco4)nc23)n1` [J1.251.181G], the Ki is 0.85 nM and 0.86 nM.
